The target in the assay is T1, thromboxane synthetase (Homo sapiens, UniProt P24557).
T1 construct: endogenous in cells; host or cells: human platelets (platelet-rich plasma passed through Sepharose 2B)
T1 sequence (P24557 1-533): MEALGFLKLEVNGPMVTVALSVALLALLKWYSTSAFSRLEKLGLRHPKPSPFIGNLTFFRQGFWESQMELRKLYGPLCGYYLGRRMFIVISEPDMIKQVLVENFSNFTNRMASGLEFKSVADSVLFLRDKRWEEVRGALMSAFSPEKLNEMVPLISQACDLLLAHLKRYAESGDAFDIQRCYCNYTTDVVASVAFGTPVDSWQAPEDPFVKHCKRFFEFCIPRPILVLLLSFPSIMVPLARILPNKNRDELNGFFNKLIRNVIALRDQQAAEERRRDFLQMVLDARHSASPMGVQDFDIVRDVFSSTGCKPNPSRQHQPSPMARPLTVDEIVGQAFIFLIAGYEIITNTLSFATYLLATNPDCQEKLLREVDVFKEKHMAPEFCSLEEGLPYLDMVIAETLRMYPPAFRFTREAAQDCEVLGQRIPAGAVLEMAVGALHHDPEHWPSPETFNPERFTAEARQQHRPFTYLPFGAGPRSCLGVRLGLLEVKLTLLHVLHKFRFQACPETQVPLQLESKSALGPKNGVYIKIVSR
Briefly: Inhibitory effect on thromboxane synthetase (TXB2 formation in human platelet suspension). The assay is classed as cell-based. To be noted: 10 minutes at ambient temperature, then 14C-labelled arachidonic acid 10 minutes, read-out: Inhibition of thromboxane synthetase IC50. How it is done:
Determining the Inhibitory Effect on Thromboxane Synthetase
Venous human blood is anti-coagulated with 13 mM Na3 citrate and centrifuged for 10 minutes at 170×g. The supernatant platelet-rich plasma is passed through a Sepharose 2B column in order to remove the plasma proteins. Aliquots of the platelet suspension obtained are incubated with the test substance or with a solvent as control for 10 minutes at ambient temperature and after the addition of ^14 C-labelled arachidonic acid incubation is continued for a further 10 minutes. After this has been stopped with 50 μl of citric acid, extraction is carried out 3 times with 500 μl of ethyl acetate and the combined extracts are distilled off with nitrogen. The residue is taken up in ethyl acetate, placed on TLC film and separated with chloro-form:methanol:glacial acetic acid:water (90:8:1:0.8, v/v/v/v). The dried TLC films are placed on X-ray film for 3 days, the autoradiograms were developed and the active zones were marked on the film using the autoradiograms. After cutting out, the activity is measured in a scintillation counter and the inhibition of the formation of TXB2 is calculated. The IC50 is determined by linear interpolation.

By IC50 is commonly meant the midpoint of a concentration-inhibition curve. Consider `CC(C)(C)NC(=NC#N)Nc1cccc(/C(=C\CCCC(=O)O)c2cccnc2)c1` [B, 5E-6-(3-(2-cyano-3-tert.butyl-guanidino)phenyl)-6-(3-pyridyl)hex-5-enoic acid], for which the concentration for half-maximal inhibition (IC50) amounted to 4 nM.

Values taken from US5482948A, “Pyridyl derivatives and pharmaceutical compositions comprising these compounds” (Dr. Karl Thomae GmbH, priority 1991, dated 1996).
